The test addresses Histamine H3 receptor (Homo sapiens, UniProt Q9Y5N1). The test can be described thus: [35S]-GTPgammaS binding assay for determining inverse agonist. How it is done: Materials: GTPγS, [35S] […] Briefly, for membrane parathion, HEK293/Ga15/hH3R cells were grown to confluence, harvested and the cell pellets were suspended in TEL buffer (50 mM Tris-HCl buffer, 1 mM EGTA, 0.1 mM PMSF). Homogenate and centrifuge at 1,000 g for 10 min. Centrifuge the supernatant at 46,000 g for 30 min. Suspend the membrane pellet in 50 mM Tris with 0.32 M sucrose, pH 7.0. Aliquot at 1 mg protein/mL. Keep frozen and store at −80° C. until use. All compounds were prepared by dissolving in DMSO to make 10 mM stock. The 10 mM stock was used as top concentration (1 μM) to carry out 10-points, 3-fold dilution scheme using DMSO in a 96-well plate to make the compound dose plate. […] Stay on ice for 20 min. […] Incubate at room temperature for 60 min. Filter the assay plate on GF/C (non-PEI coated) plate to stop the assay. Dry GF/C plate for 1 h. […] IC50s were calculated using Prism5 with log(inhibitor) vs. response equation.
In general terms: GTPγS resists hydrolysis and so accumulates on activated G proteins.

Protein sequences, listed by entry. Tags and fused reporters are not part of them. Lines headed by an entry give the natural chain unless they say otherwise; changes in a name come on top.
UniProt Q9Y5N1: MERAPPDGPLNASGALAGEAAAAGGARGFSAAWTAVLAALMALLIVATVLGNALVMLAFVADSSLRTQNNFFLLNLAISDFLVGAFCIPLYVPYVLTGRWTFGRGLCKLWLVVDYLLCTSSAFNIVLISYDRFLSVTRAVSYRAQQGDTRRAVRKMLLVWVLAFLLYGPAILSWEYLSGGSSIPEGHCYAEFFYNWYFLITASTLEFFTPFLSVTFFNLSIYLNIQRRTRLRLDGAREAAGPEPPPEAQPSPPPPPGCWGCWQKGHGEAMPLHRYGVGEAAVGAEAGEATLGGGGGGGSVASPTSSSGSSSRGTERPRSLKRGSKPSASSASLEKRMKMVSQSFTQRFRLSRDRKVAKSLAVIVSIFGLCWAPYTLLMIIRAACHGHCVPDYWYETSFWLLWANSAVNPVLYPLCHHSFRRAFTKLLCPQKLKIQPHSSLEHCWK

The record followed here is BindingDB's records for patent US10730853 (XW LABORATORIES INC., 2020).

What is called IC50 is the point on the concentration scale where inhibition reaches its midpoint. Lower therefore signals greater potency in that assay.

With `Cc1nc2ccc(S(F)(F)(F)(F)F)cc2c(=O)n1-c1ccc(OCCCN2CCC[C@@H]2C)cc1` [US10730853, Compound XII], the 50% inhibitory concentration (IC50) came to 17.6 nM.
